Earlier results, collected in US20130287898A1, “Trivalent Chromium and Boron Fortifying Composition, a Hydration Supplement, and Process for Preparing the Same” (priority 2010, published 2013).

What was measured:
[1] = Chromium 454: room temperature
[2] = oral, compared to the equivalent amount of boron citrate

Calcium Fructoborate Ca(C6H10O6BO)2X3X5H2O [FruiteX-B]
solubility in water [1]: water-soluble
relative systemic availability of boron ([2]; 43 microgram amount of boron): 110%
relative systemic availability of boron ([2]; 1000 microgram amount of boron): 160%

Read-outs that look alike come from different tables or passages of the source.
